From PubChem BioAssay (NCI) come the findings set out here.

Experiment [1] in a line: NCI Yeast Anticancer Drug Screen. Data for the rad50 strain (AID 155).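 Note: 0% = growth of vehicle-only cultures of the same strain.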 As to conditions: S. cerevisiae rad50 strain growth inhibition; at 50.0 µM; stronger effect = higher value.
Experiment [2] can be described thus: NCI Yeast Anticancer Drug Screen. Data for the mec2-1 strain (AID 157). As to conditions: S. cerevisiae mec2-1 strain, at 50.0 µM, stronger effect = higher value.
Experiment [3] in a line: NCI Yeast Anticancer Drug Screen. Data for the sgs1 mgt1 strain (AID 161).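 Note: 0% = growth of cultures given vehicle only.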 As to conditions: S. cerevisiae sgs1 mgt1 strain, at 50.0 µM, stronger effect = higher value.
The nature of experiment [4]: NCI Yeast Anticancer Drug Screen. Data for the cln2 rad14 strain (AID 165).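 Note: 0% = growth equal to vehicle treated cultures.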 As to conditions: S. cerevisiae cln2 rad14 strain, at 50.0 µM, stronger effect = higher value.
Experiment [5] is described as follows: NCI Yeast Anticancer Drug Screen. Data for the bub3 strain (AID 167). As to conditions: S. cerevisiae bub3 mutant strain, at 50.0 µM, stronger effect = higher value.
A short description of experiment [6]: NCI Yeast Anticancer Drug Screen. Data for the mlh1 rad18 strain (AID 175). As to conditions: S. cerevisiae mlh1 rad18 strain growth inhibition; at 50.0 µM; stronger effect = higher value.

The entries are a selection whose mix differs from that of the whole data set. Some salts or complexes appear as unconnected parts, following the source record. Active and inactive are the calls of the source. Cut-off read from the data, not from the text of the source: active = growth inhibition above about 70%; inactive = the rest.

As to `Cc1cc(=O)n(CC(C)C)n1CC(C)C.O=[N+]([O-])c1cc([N+](=O)[O-])c(O)c([N+](=O)[O-])c1`, the growth inhibition in experiment [1] is inactive: 37.5%; in experiment [2] it was inactive: 3.75%; in experiment [3] it was inactive: 33.5%; in experiment [4], inactive: -18.7%; in experiment [5], inactive: 4.7%; in experiment [6] it was inactive: 17.1%.

`CCN(CC)CCN1CCN=C1Cc1ccccc1.O=[N+]([O-])c1cc([N+](=O)[O-])c(O)c([N+](=O)[O-])c1`: the growth inhibition was inactive: 17% in experiment [1]; inactive: 1.7% in experiment [2]; inactive: 7.5% in experiment [3]; inactive: -2.9% in experiment [4]; inactive: 2.5% in experiment [5]; inactive: 22.6% in experiment [6].

For `CCN(CC)CCOC(=O)C(O)(c1ccccc1)c1ccc(C)cc1` (stereo not drawn), the growth inhibition in experiment [1] is inactive: 0.15%; in experiment [2], inactive: 4.9%; in experiment [3], inactive: -5.7%; in experiment [4], inactive: -17%; in experiment [5] it was inactive: -0.85%; in experiment [6], inactive: 4.55%.

For `CCC(C)OC(=O)N(CCCl)CCCl` (stereo not drawn), the growth inhibition in experiment [1] was inactive: 12.2%; in experiment [2] it was inactive: 12.4%; in experiment [3] it was inactive: 0.8%; in experiment [4] it was inactive: 15.1%; in experiment [5], inactive: 8.6%; in experiment [6] it was inactive: 7.65%.

As for `CN1CCC(Cc2ccccc2)CC1.O=[N+]([O-])c1cc([N+](=O)[O-])c(O)c([N+](=O)[O-])c1`, the growth inhibition in experiment [1] is inactive: 39.9%; in experiment [2] it was inactive: 7.85%; in experiment [3], inactive: 27.7%; in experiment [4], inactive: 24.7%; in experiment [5], inactive: 6.25%; in experiment [6], inactive: 29.4%.

Take `CCN(CC)CCOC(=O)C(O)(c1cc(C)c(C)c(C)c1)C1CCCCC1` (stereo not drawn): the growth inhibition in experiment [1] is inactive: 35.5%; in experiment [2], inactive: -2.15%; in experiment [3], inactive: 20.6%; in experiment [4] it was inactive: -57%; in experiment [5], inactive: 2.3%; in experiment [6] it was inactive: 15%.

Turning to `CC(=O)[CH-]C(=O)c1ccccc1.CC(=O)[CH-]C(=O)c1ccccc1.O=C([O-])C([O-])(c1ccccc1)c1ccccc1.O=C([O-])C([O-])(c1ccccc1)c1ccccc1.[Ti+4]`, the growth inhibition in experiment [1] is inactive: 19.9%; in experiment [2], inactive: 3.55%; in experiment [3], inactive: 29.7%; in experiment [4], inactive: -8.65%; in experiment [5] it was inactive: 23.2%; in experiment [6] it was inactive: 17.4%.

As for `O=[N+]([O-])c1cc([N+](=O)[O-])c(O)c([N+](=O)[O-])c1.OC(c1ccccc1)C(c1ccccc1)c1cc(-c2ccccc2)n[nH]1` (stereo not drawn), the growth inhibition was active: 99.3% in experiment [1]; active: 99.5% in experiment [2]; active: 99.5% in experiment [3]; active: 99.4% in experiment [4]; active: 98.9% in experiment [5]; active: 99.3% in experiment [6].

On to `CN/C(N)=N/[N+](=O)[O-]`, for which the growth inhibition in experiment [1] is inactive: 27.6%; in experiment [2], inactive: -11.2%; in experiment [3], inactive: -3.65%; in experiment [4], inactive: 18.2%; in experiment [5], inactive: -11.8%; in experiment [6], inactive: 13.5%.

In the case of `N#CCc1ccc2ccccc2n1.O=[N+]([O-])c1cc([N+](=O)[O-])c(O)c([N+](=O)[O-])c1`, the growth inhibition in experiment [1] is inactive: 46%; in experiment [2], inactive: 14.7%; in experiment [3], inactive: 35.9%; in experiment [4], inactive: 25.1%; in experiment [5], inactive: 8.1%; in experiment [6], inactive: 22.6%.

Turning to `CN([PH+](F)F)[PH+](F)F.CN([PH+](F)F)[PH+](F)F.CN([PH+](F)F)[PH+](F)F.CN([PH+](F)F)[PH+](F)F.CN([PH+](F)F)[PH+](F)F.[Ni].[Ni]`, the growth inhibition was inactive: 24.6% in experiment [1]; inactive: 5.55% in experiment [2]; inactive: 8.75% in experiment [3]; inactive: 18.4% in experiment [4]; inactive: 12.6% in experiment [5]; inactive: 4.2% in experiment [6].

In the case of `N=P(c1ccccc1)(c1ccccc1)c1ccccc1.[C-]#N.[C-]#N.[C-]#N.[C-]#N.[C-]#N.[C-]#N.[Fe+6]`, the growth inhibition was inactive: 5.5% in experiment [1]; inactive: -7.3% in experiment [2]; inactive: -9.3% in experiment [3]; inactive: -11.3% in experiment [4]; inactive: 1.55% in experiment [5]; inactive: 1.7% in experiment [6].

Consider `C[N+]1(CCCCCC[N+]2(C)CCCCCC2)CCCCCC1.O=[N+]([O-])c1cc([N+](=O)[O-])c(O)c([N+](=O)[O-])c1`, for which the growth inhibition was inactive: -15.8% in experiment [1]; inactive: -8.35% in experiment [2]; inactive: -17.6% in experiment [3]; inactive: -12.4% in experiment [4]; inactive: -19.5% in experiment [5]; inactive: -1.75% in experiment [6].

As for `O=[N+]([O-])c1cc([N+](=O)[O-])c(O)c([N+](=O)[O-])c1.c1cncc(C2CCCN2)c1`, the growth inhibition in experiment [1] is inactive: 2.75%; in experiment [2] it was inactive: -8.7%; in experiment [3], inactive: 22.4%; in experiment [4], inactive: 7.5%; in experiment [5] it was inactive: 15%; in experiment [6] it was inactive: 13.4%.

As for `COC(=O)CC1CCC(C(=O)OC)N1C.O=[N+]([O-])c1cc([N+](=O)[O-])c(O)c([N+](=O)[O-])c1`, the growth inhibition in experiment [1] is inactive: 27.9%; in experiment [2], inactive: 8.75%; in experiment [3], inactive: 31.4%; in experiment [4], inactive: 18.7%; in experiment [5], inactive: 1.6%; in experiment [6], inactive: 19.9%.

In the case of `Cc1cccc(C)n1.O=[N+]([O-])c1cc([N+](=O)[O-])c(O)c([N+](=O)[O-])c1`, the growth inhibition in experiment [1] was inactive: 17.5%; in experiment [2], inactive: -12.4%; in experiment [3], inactive: 9.9%; in experiment [4] it was inactive: 11.9%; in experiment [5] it was inactive: 10.8%; in experiment [6], inactive: 9.25%.

Regarding `CC(C)(C)C1COP(C)(=S)OC1` (stereo not drawn), the growth inhibition in experiment [1] was inactive: -9.15%; in experiment [2] it was inactive: -4.3%; in experiment [3] it was inactive: -0.4%; in experiment [4], inactive: -16.5%; in experiment [5] it was inactive: 19.9%; in experiment [6] it was inactive: -10.6%.

`Cc1ccc(N=[N-])cc1.[C-]#[O+].[Mo].[c-]1[c-][c-][cH-][c-]1.c1ccc([PH+](c2ccccc2)c2ccccc2)cc1`: the growth inhibition in experiment [1] is inactive: -23.9%; in experiment [2] it was inactive: -14.1%; in experiment [3], inactive: -23.2%; in experiment [4] it was inactive: -41%; in experiment [5], inactive: -0.25%; in experiment [6], inactive: -25.7%.
